The data set relates to KPL-4 tumor. The data set is described as follows: Whole-body autoradiography in KPL-4 tumor-bearing mice. In kind it is in vivo. Particulars: midline plane autoradiograph; despite NaI blocking doses 24 and 1 h prior to dosing. The text has this: In the three-dimensional volume renderings from a coronal perspective (upper), the skeletal images are derived from the X-ray (anatomical) CT data while the relative levels of radioactivity from the SPECT data are indicated in a false-color scale. Tumor-to-blood (T:B) ratios of radioactive uptake are shown. Post-mortem cryosection images from a sagittal perspective (lower) were acquired from the same mice as in the upper panel. False-colored phosphorimages (left) and digital photographs (right) are shown for each mouse in the tumoral plane. Tissues are labeled as tumor (T), liver (L) and kidney (K).
Whole-body localization of radioactivity in KPL-4 tumor-bearing mice was determined by autoradiography (FIG. 15, lower). Digital photographs of the sagittal cryosections allow anatomical coregistration. The same rank order of relative tumor uptake (upper panel) was qualitatively observed: ^111In-DOTA>[^125I]I6 (LC-V205C)>[^125I]6 (HC-A114C)>[^125I]6 (Fc-S396C)>^125I (tyrosine-modified). Elevated renal uptake, especially for the Fc variant of ^125I-6-trastuzumab, was evident by both SPECT and autoradiography and recapitulated the data obtained by organ harvest in the plasma pharmacokinetic study of FIG. 13 and biodistribution of FIG. 14. […]

As for “^125I-trastuzumab: trastuzumab radiolabeled by traditional means, through its tyrosine residues, with 125I by the indirect Chizzonite (Iodogen) method”, the “Thyroid gland uptake of radioactivity” value was “strikingly high uptake of radioactivity in the thyroid gland”.

Source of the values: patent publication US9486546B2, “Methods and compositions for radiohalogen protein labeling” (Genentech, Inc., priority 2012, dated 2016).
